Values of other authors, collected in US9546151B2, “VMAT inhibitory compounds” (Oregon Health & Science University, priority 2014, dated 2017).

The chains behind the UniProt entries cited, without tags or fusion partners.
UniProt Q05940, whole entry, species assumed: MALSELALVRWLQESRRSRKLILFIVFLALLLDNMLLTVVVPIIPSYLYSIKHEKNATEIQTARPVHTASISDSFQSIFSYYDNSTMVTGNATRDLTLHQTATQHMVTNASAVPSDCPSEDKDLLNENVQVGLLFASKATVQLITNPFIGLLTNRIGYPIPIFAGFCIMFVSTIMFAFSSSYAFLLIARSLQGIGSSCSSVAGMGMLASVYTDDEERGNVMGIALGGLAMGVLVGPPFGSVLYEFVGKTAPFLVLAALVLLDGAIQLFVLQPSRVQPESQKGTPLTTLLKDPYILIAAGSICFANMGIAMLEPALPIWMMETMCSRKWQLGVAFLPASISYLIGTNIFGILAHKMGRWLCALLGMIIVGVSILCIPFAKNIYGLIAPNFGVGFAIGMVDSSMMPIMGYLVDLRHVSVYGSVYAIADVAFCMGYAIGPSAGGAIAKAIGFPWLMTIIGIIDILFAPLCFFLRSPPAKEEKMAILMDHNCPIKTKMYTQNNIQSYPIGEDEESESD

Molecular target: VMAT2 (Homo sapiens, UniProt Q05940)
Conditions: background statements; cited from earlier work

COC(=O)[C@H]1[C@H]2C[C@@H]3c4[nH]c5cc(OC)ccc5c4CCN3C[C@H]2C[C@@H](OC(=O)c2cc(OC)c(OC)c(OC)c2)[C@@H]1OC [reserpine, Methyl (3β,16β,17α,18β,20α)-11, 17-dimethoxy-18-[(3,4,5-trimethoxybenzoyl)oxy]yohimban-16-carboxylate]
affinity for VMAT2 (in words): high-affinity

COc1cc2c(cc1OC)[C@H]1C[C@@H](O)[C@H](CC(C)C)CN1CC2 [DTBZ, Dihydrotetrabenazine]
affinity for VMAT2 (in words): high affinity
